Earlier results as cited in paper PMC9657321, “Identification of Boronate-Containing Diarylpyrimidine Derivatives as Novel HIV-1 Non-Nucleoside Reverse Transcriptase Inhibitors” (Molecules, 2022).

Target: recombinant wild-type HIV-1 RT enzyme (Human immunodeficiency virus type 1 group M subtype B, UniProt P03366)
Details: read-out: IC50 WT HIV-1 RT; inhibition of biotin-dUTP incorporation by 50%; cited from earlier work

Cc1cc(C#N)cc(C)c1Oc1nc(Nc2ccc(C#N)cc2)nc(N)c1Br [ETR, etravirine, reference compound]
IC50: 11 nM
